{"source": "ChEMBL document CHEMBL1126016", "about": "“Inhibitors of protein kinase C. 1. 2,3-Bisarylmaleimides” (J Med Chem, 1992)", "molecular_target": "Protein kinase C gamma type (Rattus norvegicus, UniProt P63319)", "assay": "Inhibition of rat brain protein kinase C (PKC) with ATP and histone as substrates", "how_it_was_run": "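Rat brain PKC assayed with ATP and histone as substrates. Inhibitors were dissolved as DMSO stocks and tested in 10% aqueous DMSO final. Concentrations above 100 μM were not tested. Each point was run in triplicate, and the IC50 is the mean of at least two independent assays.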", "note": "pIC50: −log10 of the molar value.", "data": [{"smiles": "COC(=O)[C@@]1(O)C[C@H]2O[C@]1(C)n1c3ccccc3c3c4c(c5c6ccccc6n2c5c31)C(=O)NC4", "note": "(single isomer, unassigned) [K-252A]", "values": [{"measurement": "pIC50", "result": 6.33}]}]}
